Test results as given in PubChem BioAssay AID2521 (Sanford-Burnham Center for Chemical Genomics, 2010).
Only a part is listed here, and it is no random draw. The source made the active and inactive calls.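 Rule for the calls: active = inhibition above about 40% at 20 µM (limit read from the data); inactive = the rest.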

Sequences of proteins named here, by UniProt entry; tags and fusion partners are left off. A change or cut given only in a name is not applied to a line headed by its entry.
UniProt P35414: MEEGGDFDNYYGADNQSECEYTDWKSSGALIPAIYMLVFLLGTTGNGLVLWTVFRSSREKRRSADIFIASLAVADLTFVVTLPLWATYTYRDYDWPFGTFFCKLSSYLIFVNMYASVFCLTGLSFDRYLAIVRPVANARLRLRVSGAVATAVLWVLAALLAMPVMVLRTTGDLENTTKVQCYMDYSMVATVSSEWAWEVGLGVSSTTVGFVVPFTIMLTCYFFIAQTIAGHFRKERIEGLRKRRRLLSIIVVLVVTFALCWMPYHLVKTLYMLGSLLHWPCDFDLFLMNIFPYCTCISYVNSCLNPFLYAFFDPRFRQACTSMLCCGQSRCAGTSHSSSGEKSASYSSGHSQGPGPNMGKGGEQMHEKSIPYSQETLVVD

Each compound was assayed against Apelin receptor (Homo sapiens) (UniProt P35414) (assay: antagonists of human apelin receptor APJ, primary screen, CHO-K1 cells, beta-arrestin complementation, luminescence (AID 2521;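 note: cells challenged with 10 nM apelin-13 agonist together with compound; plate controls were apelin-13 plus DMSO wells for no effect and DMSO wells lacking apelin-13 for full effect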)). Details: at 20 µM, stronger effect = higher value.

Row | SMILES | inhibition
1 | Cc1ccnc(SCc2cc(=O)c(OC(=O)c3ccc(Cl)c([N+](=O)[O-])c3)co2)n1 | active: 58.4%
